Biological target: AKT2 (embryonic rat cardiomyocytes) (rat (endogenous in embryonic E18 rat cardiac myocytes)) (UniProt P47197)
Test: proximity ligation; Duolink in situ PLA on embryonic rat cardiac myocytes, serum deprived overnight, stimulated with angiotensin II (30 min, 100 nM), IGF-1 (10 min, 1 µg/ml) or insulin (10 min, 1,75 µg/ml); signals/nuclei relative to cells pretreated with LY294002 (1 h, 50 µM) before the stimulant (= 100%)

The chains behind the UniProt entries cited, without tags or fusion partners. Where a name states a change or a piece, a line headed by the entry shows the natural chain unless it says otherwise.
UniProt P47197: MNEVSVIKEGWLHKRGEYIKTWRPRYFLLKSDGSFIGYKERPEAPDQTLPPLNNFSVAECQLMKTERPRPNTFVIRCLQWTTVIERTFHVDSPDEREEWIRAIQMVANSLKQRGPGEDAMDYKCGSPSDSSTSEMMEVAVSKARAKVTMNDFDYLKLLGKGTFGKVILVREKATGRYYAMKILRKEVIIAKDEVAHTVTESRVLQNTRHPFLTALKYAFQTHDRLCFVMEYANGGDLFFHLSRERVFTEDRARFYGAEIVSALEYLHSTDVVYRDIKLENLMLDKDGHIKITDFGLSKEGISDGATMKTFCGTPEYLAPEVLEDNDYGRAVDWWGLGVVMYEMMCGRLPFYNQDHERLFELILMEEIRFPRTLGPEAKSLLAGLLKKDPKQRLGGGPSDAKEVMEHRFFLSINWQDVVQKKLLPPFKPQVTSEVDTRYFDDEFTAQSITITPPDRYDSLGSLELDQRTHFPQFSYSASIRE

- PLA signal after stimulation, percent of that in cells pretreated with LY294002: 25 to 50%
Substance: Elongation factor 2 (embryonic rat cardiomyocytes) (from UniProt P05197 1-858) (natural protein)
